Measurements reported in ChEMBL document CHEMBL1127099, “Anticonvulsant activity of glycine-site NMDA antagonists. 2. trans 2-carboxy-4-substituted tetrahydroquinolines” (Bioorg Med Chem Lett, 1993).

Biological target: Glutamate NMDA receptor
Assay: Tested for the binding affinity at glycine recognition site of the NMDA receptor in rat cortical membranes using radiolabeled [3H]- L-689 560
Type: cell membranes, Membrane

## O=C(O)c1cc(=O)c2ccccc2[nH]1 [TRANSTORINE]
  IC50: 13.8 µM
